The record followed here is patent US20190084968A1, “FUMAGILLOL HETEROCYCLIC COMPOUNDS AND METHODS OF MAKING AND USING SAME” (Zafgen, Inc., priority 2015, published 2019).

The test system of this data set is embryo/fetal development in pregnant Sprague Dawley rats. The conditions noted are these: 6 mpk subcutaneously once every three days, Gestation Days 6-18, pregnant rats. The method, then: The objective of this study design was to evaluate the potential effects of disclosed compounds on embryo/fetal development when given subcutaneously to pregnant rats once every three days during the critical period of organogenesis (Gestation Days 6-18). Female, Sprague Dawley rats, approximately 10 weeks of age, time bred, were ordered from a certified vendor and housed individually housed in stainless steel cages suspended over flush pans, on a 12-hour light-dark cycle (0700-1900) at 20-26° C. and 30-70% humidity. Rats were fed a standard rodent chow and provided water ad libitum. Rats were received and housed in the facility for a period of approximately 1 to 2 days.
Compounds were formulated using 100% DMSO mixed in Sterile Water for Injection, resulting in 2% DMSO solution in water. […] Body weights was recorded for all animals on Gestation Days 5 (purpose of randomization), 6, 9, 12, 15, 18, and 20 (scheduled euthanasia). Food consumption by weight was recorded on Gestation Days 6, 9, 12, 15, 18, and 20 (scheduled termination).
At necropsy, the dams were examined visually for external abnormalities including palpable masses. The abdominal, thoracic, and cranial cavities and their contents were examined for abnormalities and findings will be recorded. […] For dead fetuses and late resorptions, crown-to-rump length and weight were recorded, if possible, and the fetus was discarded. […]

Each structure is given as a SMILES string. Structures can show the parent of a compound that is named as a salt.

For the compound `CO[C@@H]1[C@H](OC(=O)N2CC(OC(=O)N3CCOCC3)C2)CC[C@]2(CO2)[C@H]1[C@@]1(C)O[C@@H]1CC=C(C)C` [Example 71, 1-(((3R,4S,5S,6R)-5-methoxy-4-((2R,3R)-2-methyl-3-(3-methylbut-2-enyl)oxiran-2-yl)-1-oxaspiro[2.5]octan-6-yloxy)carbonyl)azetidin-3-yl morpholine-4-carboxylate formate], the “Rat Embryofetal @6 mpk” value is reported as “Negative”. The same measure for `CO[C@@H]1[C@H](OC(=O)N2CC(CCC3CCN(CC(F)F)CC3)C2)CC[C@]2(CO2)[C@H]1[C@@]1(C)O[C@@H]1CC=C(C)C` [Example 91, (3R,4S,5S,6R)-5-methoxy-4-((2R,3R)-2-methyl-3-(3-methylbut-2-enyl)oxiran-2-yl)-1-oxaspiro[2.5]octan-6-yl 3-(2-(1-(2,2-difluoroethyl)piperidin-4-yl)ethyl)azetidine-1-carboxylate formate]: “Positive”.
